Data as given in patent US5750536A, “Tropyl 7-azaindol-3-ylcarboxyamides as antitussive agent” (priority 1993, dated 1998).

System: 5-HT2
Assay: Binding test 5-HT2
Conditions: at 3.6 10^-5 M
Text: Compounds A and Compounds B of the present invention, which are examples of endo-tropyl and quinuclidylamide of 7-azaindolyl-3-carboxylic acid respectively have been studied "in vitro" for their interaction with the 5-HT1, 5-HT2 and 5-HT3 receptors.
Binding Test: 5-HT1 5-HT2
% of inhibition at 3.6 10^-5 M

Compound: Cc1nccn1CC1CCc2c(c3ccccc3n2C)C1=O (racemic) [Ondasetron, reference compound]
- % of inhibition 5-HT2: 21.7%
